Target: urease (Canavalia ensiformis, UniProt P07374)
Settings: read-out: Urease assay IC50; means ± S.E.M. of three parallel measurements

“N-phenyl-N′-(2-mercapto-carboxyethanyl)thiourea [Compound 1]” and “N-(4-cyanophenyl)-N′-(2-mercapto-carboxyethanyl)thiourea [Compound 7]” are within 1.5-fold of each other in IC50: 64.6 ± 0.4 µM for the first, 68.3 ± 0.5 µM for the second.

“N-(4-fluorophenyl)-N′-(2-mercapto-carboxyethanyl)thiourea [Compound 4]” and “N-(2-chloro-5-(trifluoromethyl)phenyl)-N′-(2-mercapto-carboxyethanyl)thiourea [Compound 9]” are within 1.5-fold of each other in IC50: 61.5 ± 0.3 µM for the first, 50.2 ± 0.1 µM for the second.

Going from “N-(2,5-dichlorophenyl)-N′-(2-mercapto-carboxyethanyl)thiourea [Compound 15]” to “N-(3,5-dimethoxyphenyl)-N′-(2-mercapto-carboxyethanyl)thiourea [Compound 13]”, the IC50 falls from 55.4 ± 1.3 µM to 16.5 ± 0.6 µM (3.4-fold).

Compared with “N-(4-methoxyphenyl)-N′-(2-mercapto-carboxyethanyl)thiourea [Compound 6]”, “N-(3,4,5-trimethoxyphenyl)-N′-(2-mercapto-carboxyethanyl)thiourea [Compound 14]” is 2.3-fold lower in IC50: 31.3 ± 0.2 µM for the first, 13.4 ± 0.8 µM for the second.

“N-(4-chlorophenyl)-N′-(2-mercapto-carboxyethanyl)thiourea [Compound 3]” and “N-(4-(dimethylamino)phenyl)-N′-(2-mercapto-carboxyethanyl)thiourea [Compound 16]” are within 1.5-fold of each other in IC50: 58.2 ± 0.4 µM for the first, 44.3 ± 1.1 µM for the second.

“N-(2,5-dimethoxyphenyl)-N′-(2-mercapto-carboxyethanyl)thiourea [Compound 11]” and “N-(2,4-dimethoxyphenyl)-N′-(2-mercapto-carboxyethanyl)thiourea [Compound 10]” are within 1.5-fold of each other in IC50: 22.1 ± 0.1 µM for the first, 20.9 ± 1 µM for the second.

Going from “N-(3,4-dimethoxyphenyl)-N′-(2-mercapto-carboxyethanyl)thiourea [Compound 12]” to “N-(4-(trifluoromethyl)phenyl)-N′-(2-mercapto-carboxyethanyl)thiourea [Compound 5]”, the IC50 rises from 26.5 ± 0.4 µM to 46.2 ± 0.7 µM (1.7-fold). The first is the more potent here.

Going from “N-(5-chloro-2-methoxyphenyl)-N′-(2-mercapto-carboxyethanyl)thiourea [Compound 8]” to “N-(4-bromophenyl)-N′-(2-mercapto-carboxyethanyl)thiourea [Compound 2]”, the IC50 rises from 34.8 ± 0.2 µM to 66.1 ± 0.7 µM (1.9-fold). The first is the more potent here.

Reference: publication PMC10503972, “Synthesis, predictions of drug-likeness, and pharmacokinetic properties of some chiral thioureas as potent enzyme inhibition agents” (Turkish Journal of Chemistry, 2021)
